Measured values as given in PubChem BioAssay AID2550 (Johns Hopkins Ion Channel Center, 2010).
The entries are a selection whose mix differs from that of the whole data set. Activity calls are given as the source filed them.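 How the source made its calls: active means B-score of the integrated fluorescence ratio above library mean plus 3 SD, and starting fluorescence ratio within library mean plus 5 SD; inactive means the rest.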

By UniProt entry, the sequences of proteins in these tests, tags left out.
UniProt Q61143, whole entry: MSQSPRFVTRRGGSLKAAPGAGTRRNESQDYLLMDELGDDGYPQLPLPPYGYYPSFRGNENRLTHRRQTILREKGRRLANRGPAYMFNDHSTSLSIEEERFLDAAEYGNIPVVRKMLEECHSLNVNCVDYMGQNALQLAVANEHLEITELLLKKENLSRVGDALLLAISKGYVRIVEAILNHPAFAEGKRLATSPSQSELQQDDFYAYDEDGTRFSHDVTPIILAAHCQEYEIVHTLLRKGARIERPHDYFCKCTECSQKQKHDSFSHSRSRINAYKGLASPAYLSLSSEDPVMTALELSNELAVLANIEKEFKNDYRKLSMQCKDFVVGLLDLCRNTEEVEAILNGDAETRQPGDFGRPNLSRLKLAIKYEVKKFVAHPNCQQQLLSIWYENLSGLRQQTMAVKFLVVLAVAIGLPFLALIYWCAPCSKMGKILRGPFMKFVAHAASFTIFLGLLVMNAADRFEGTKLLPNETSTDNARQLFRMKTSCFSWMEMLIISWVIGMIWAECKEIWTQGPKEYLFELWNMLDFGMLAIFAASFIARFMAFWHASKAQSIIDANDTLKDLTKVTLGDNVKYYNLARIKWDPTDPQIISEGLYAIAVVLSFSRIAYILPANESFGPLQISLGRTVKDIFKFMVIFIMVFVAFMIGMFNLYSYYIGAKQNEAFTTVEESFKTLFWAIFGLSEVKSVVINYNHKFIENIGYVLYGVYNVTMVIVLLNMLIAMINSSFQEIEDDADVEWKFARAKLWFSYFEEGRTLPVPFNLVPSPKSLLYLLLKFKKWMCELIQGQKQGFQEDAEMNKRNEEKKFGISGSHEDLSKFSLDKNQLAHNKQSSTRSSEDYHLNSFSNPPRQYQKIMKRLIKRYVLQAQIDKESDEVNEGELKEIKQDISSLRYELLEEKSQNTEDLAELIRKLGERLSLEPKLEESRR

target: Short transient receptor potential channel 6 (Mus musculus) (UniProt Q61143); assay: mouse TRPC6 channel activators, primary screen, cell-based, HEK293, membrane potential dye (AID 2550); settings: HEK293-TRPC6 membrane potential dye fluorescence; at 10 µM;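 further: higher score means more depolarization so channel activation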

SMILES | outcome
CCOC(=O)C(CC)C1=NC(C)(C)Cc2ccccc21.O=[N+]([O-])c1cc([N+](=O)[O-])c(O)c([N+](=O)[O-])c1 (centres undefined) | inactive
CN(C)C1(CNC(=O)c2ccc(S(C)(=O)=O)cc2)CCCCC1 | inactive
O=[N+]([O-])c1cc([N+](=O)[O-])c(Nc2nnnn2CCO)c([N+](=O)[O-])c1 | inactive
O=C(/C=C/c1ccccc1)OC1CN2CCC1CC2 (centres undefined) | inactive
CN1CCCCC1COC(=O)C1(O)c2ccccc2CCc2ccccc21 (centres undefined) | inactive
COc1ccccc1OP(C)(=O)Nc1c(C)cccc1C (centres undefined) | inactive
O=P1(Nc2ncccn2)COc2ccccc2OC1 | inactive
CCCOc1ccc(NP(C)(=O)Oc2ccc(Cl)cc2)cc1 (centres undefined) | inactive
Nc1cccc([As](=O)(O)c2ccccc2)c1 | inactive
CP(=O)(Nc1ccc(SC(F)(F)F)cc1)Oc1ccccc1 (centres undefined) | inactive
Cc1ccc(OCC(=O)OC2CN3CCC2CC3)cc1 (centres undefined) | inactive
O=[As](O)(c1cccs1)c1cccs1 | inactive
O=P1(Nc2ccc(Br)cn2)COc2ccccc2OC1 | inactive
O=P(Nc1nccs1)(Oc1ccccc1)Oc1ccccc1 | inactive
O=P(Nc1nccs1)(c1ccccc1)c1nc2ccccc2s1 (centres undefined) | inactive
O=C(O)c1cccc(Nc2c([N+](=O)[O-])cc([N+](=O)[O-])cc2[N+](=O)[O-])c1 | inactive
CCOP1(=S)c2c(C)nn(CCC#N)c2N=C(c2ccccc2F)N1C (centres undefined) | inactive
CS(=O)(=O)c1cc([N+](=O)[O-])c2no[n+]([O-])c2c1 | inactive
O=C(O)COc1ccc([As](=O)(O)O)cc1[N+](=O)[O-] | inactive
Nc1ccccc1[As](=O)(O)c1ccccc1 | inactive
NC(=O)Nc1ccc([As](=O)(O)O)cc1 | inactive
CN(C(=O)Cc1ccccc1)[C@@H]1CC[C@]2(CCCO2)C[C@H]1N1CCCC1 | inactive

SMILES | outcome
CCOP1(=S)c2c(C)nn(CCC#N)c2N=C(c2ccc(F)cc2)N1C (centres undefined) | inactive
N#CCCN(C(=O)COC(=O)C(O)(c1ccccc1)c1ccccc1)c1ccc(F)cc1 | inactive
CC1=NCCc2c1[nH]c1ccccc21.O=[N+]([O-])c1cc([N+](=O)[O-])c(O)c([N+](=O)[O-])c1 | inactive
CN(C(=O)Cc1ccc(Cl)c(Cl)c1)[C@H]1CC[C@@]2(CCCO2)C[C@@H]1N1CCCC1 | inactive
O=[N+]([O-])c1ccc2c(c1)nnn2O | inactive
CN(C)C(=O)c1cc([N+](=O)[O-])cc2c1-c1c(cc([N+](=O)[O-])cc1[N+](=O)[O-])C2=O | inactive
O=C(OC1CN2CCC1CC2)c1ccc(Cl)cc1 (centres undefined) | inactive
COc1ccccc1OP(C)(=O)Nc1cccc(Br)c1 (centres undefined) | inactive
CS(=O)(=O)c1ccc(Cl)c(NC(=O)COC(=O)C(O)(c2ccccc2)c2ccccc2)c1 | inactive
O=[As](O)(O)c1cccnc1 | inactive
COc1cc(C(=O)NCC2(N3CCOCC3)CCCCC2)cc(Cl)c1OC(C)C | inactive
Cc1cc(C)cc(OP(C)(=O)Nc2ccc(C)cc2C)c1 (centres undefined) | inactive
Cc1cccc(OCC(=O)OC2CN3CCC2CC3)c1 (centres undefined) | inactive
O=[As](O)(c1cccc(O)c1)c1cccc(O)c1 | inactive
CCOC(=O)c1ccc(NP(C)(=O)Oc2cc(C)cc(C)c2)cc1 (centres undefined) | inactive
Cc1ccc(NCCc2c([N+](=O)[O-])cc([N+](=O)[O-])cc2[N+](=O)[O-])cc1 | inactive
Nc1cccc2c([As](=O)(O)O)cccc12 | inactive
Cc1cc(C)cc(OP(C)(=O)Nc2ccccn2)c1 (centres undefined) | inactive
CP(=O)(Nc1cccc(Br)c1)Oc1ccccc1 (centres undefined) | inactive
Cc1ccc(C)c(NP(C)(=O)Oc2ccccc2)c1 (centres undefined) | inactive
CCCOP(=S)(Nc1nc(N)cc(=O)[nH]1)OCCC | inactive
CCOP(=O)(Nc1cccc2ccccc12)OCC | inactive
